Results as given in patent US20250382258A1, “NAPHTHALENE-TYPE COMPOUND AND PREPARATION METHOD THEREFORE AND USE THEREFORE” (DALIAN INSTITUTE OF CHEMICAL PHYSICS, CHINESE ACADEMY OF …, priority 2022, published 2025).

Assay: water solubility under acidic conditions
Format: physicochemical

2,4-dibenzylamine-1-naphthol
water solubility under acidic conditions: lower than 5 mM
